# Laboratory results taken from PubChem BioAssay AID571 (The Scripps Research Institute Molecular Screening Center, 2007).
# Amino acid sequences for entries named in this document (tags omitted).
# UniProt P28566, whole entry: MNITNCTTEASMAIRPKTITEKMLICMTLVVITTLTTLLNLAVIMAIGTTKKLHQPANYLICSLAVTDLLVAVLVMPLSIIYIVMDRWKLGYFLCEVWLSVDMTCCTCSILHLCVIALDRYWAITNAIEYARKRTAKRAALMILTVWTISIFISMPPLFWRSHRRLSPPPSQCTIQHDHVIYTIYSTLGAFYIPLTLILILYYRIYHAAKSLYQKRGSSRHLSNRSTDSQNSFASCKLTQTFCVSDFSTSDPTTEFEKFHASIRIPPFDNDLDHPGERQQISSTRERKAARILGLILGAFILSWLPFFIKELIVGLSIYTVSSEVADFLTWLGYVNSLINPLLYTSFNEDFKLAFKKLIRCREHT
# Only a part is listed here, and it is no random draw. Active and inactive are the calls of the source.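 Rule for the calls: active = inhibition above a set limit, the mean inhibition across every tested compound plus 3 SD (cut at about 29% in these data); inactive = the rest.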
# Molecular target: 5-hydroxytryptamine receptor 1E (Homo sapiens) (UniProt P28566)
# Test: blockade of human serotonin 5HT1E receptor – cell-based, HTS, primary screen (AID 571);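 note: signal is the 460 over 535 nm emission ratio of beta-lactamase substrate; 0% = agonist plus DMSO wells and 100% = wells without agonist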
# Conditions: CHO 5-HT1E Ga15 NFAT-bla reporter, FRET, antagonist; at 6 µM; active compounds read high
row,SMILES,inhibition
1,N#CC1(Nc2ccccc2)CCN(CCc2ccccc2)CC1,inactive: -7.27%
2,O=C(OC1CN2CCC1CC2)C1c2ccccc2Oc2ccccc21 (configuration not stated),inactive: -0.28%
3,COc1ccc(NC2CCN(CCc3ccccc3)CC2)c(OC)c1,inactive: 0.84%
4,Fc1ccccc1NC1CCN(Cc2ccccc2)CC1,inactive: 5.3%
5,CCC(CO)(C(=O)OC1CN2CCC1CC2)c1ccccc1 (configuration not stated),inactive: 2.4%
6,CCOc1ncccc1C(=O)NCC1(N2CCOCC2)CCCCC1,inactive: 4.91%
7,N/C(=N\O)c1c(N)no[n+]1[O-],inactive: -12.4%
